Screens as filed in PubChem BioAssay.
ALDH1A1 inh = inhibitors of human aldehyde dehydrogenase 1A1; Purified ALDH1A1, NADH fluorescence, propionaldehyde substrate; P00352; Potency, µM (highest dose often 75.3 µM), without a hit: top-dose activity, negative = inhibition, usual class: inhibitors; actives 7.3% (n = 220,000); active means well fitted inhibition curve with a large enough effect, not every such curve was filed as active; inconclusive means small, poorly fitted or top-dose-only effect, or another doubt; inactive means no such curve, though single readings can be large or run the other way;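 further: potency means the concentration at half of the fitted maximal effect; plate controls were no enzyme wells and a reference inhibitor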
G9a block = G9a (human) methyltransferase inhibition | Potency, µM (doses to about 102 µM), for the others: at the highest dose activity, negative = inhibition, usual class: inhibitors | Q96KQ7 | actives 8.8% (n = 350,000) | G9a H3K9 monomethylation, AlphaScreen, 2 h | AID 504332; further: potency means the concentration at half of the fitted maximal effect; on the % scale 0 is the no-effect control and ±100 the full control effect; nearly all actives have a fitted effect of over 75% in size
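Signal arises when biotinylated H3K9 peptide, once monomethylated, bridges streptavidin donor and antibody-captured acceptor beads. Enzyme at 20 nM was preincubated 15 min with test compounds; peptide 500 nM and SAM 20 uM then reacted for 2 h.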
miR-21 reporter = miR-21 reporter, rising signal | 340,000 tested, under 10 active | AID 2288 | HeLa miR-21 FLuc reporter, luciferase, 48 h | Potency, µM (titrated, usually from 38.3 µM), for inactives: at the highest dose reporter change, positive = more light; active = well fitted rising curve with a large enough effect; inconclusive = small, poorly fitted or top-dose-only effect; inactive = no such curve, though single readings can be large or run the other way;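 further: % of control where 0% means no effect; miR-21 action dims this reporter so a rising signal means less miR-21 action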
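HeLa miR-21-FLuc reporter line, endogenous miR-21; 2000 cells/well in DMEM/10% FBS; compound titration up to ~40uM final, 48 h, 37 degree Celsius; luciferase detection reagent, 15 min lysis, CCD luminescence.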
JMJD2E inh = inhibitors of human JMJD2E histone demethylase | actives 1.6% (n = 230,000) | Potency, µM (titrated, usually from 57.1 µM), for the others: top-dose activity change, negative = inhibition, actives largely listed as inhibitors | AID 2147 | JMJD2E catalytic domain, FDH-coupled NADH fluorescence (FDH is formaldehyde dehydrogenase) | B2RXH2; active means well fitted inhibition curve with a large enough effect, not every such curve was filed as active; inconclusive means small, poorly fitted or top-dose-only effect, or another doubt; inactive means no such curve, though single readings can be large or run the other way;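 further: potency means the concentration at half of the fitted maximal effect; 0% = wells with enzyme and -100% = buffer wells without enzyme; nearly all actives have a fitted effect of over 50% in size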
Lamin A splicing = LMNA splicing modulation; HeLa LMNA splicing GFP/RFP minigene ratio, 48 h; Potency, µM (titrated, usually from 46.1 µM), for inactives: top-dose ratio change, negative = inhibition, hits mostly inhibitors; AID 1487; actives 0.01% (n = 200,000); active means well fitted inhibition curve with a large enough effect in the signal ratio, with a control signal flat, not every such curve was filed as active; inconclusive means small, poorly fitted or top-dose-only effect, or effect the other way, or a change in a side signal; the % refers to the signal ratio; further: potency means the concentration at half of the fitted maximal effect; on the % scale 0 is the no-effect control and ±100 the full control effect
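S3 HeLa stable clones carrying a lamin A-EGFP splicing minigene plus DsRed2 were seeded at 600 cells/well in Opti-MEM with 2% FBS, pin-dosed and incubated 48 h at 37°C. Acumen cytometry (488 nm) gave the GFP/RFP total-intensity ratio.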
Sfp PPTase inh = inhibitors of Bacillus subtilis Sfp phosphopantetheinyl transferase; Q9F4F7; Biochemical Sfp PPTase activity, qHTS; Potency, µM, inactives show max response, negative = inhibition, usual class: inhibitors; 310,000 tested, 3.5% active; active = well fitted inhibition curve with a large enough effect; inconclusive = small, poorly fitted or top-dose-only effect, or another doubt; inactive = no such curve, though single readings can be large or run the other way;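 note: the enzyme is Sfp with the accession as filed and its product quenches rhodamine fluorescence; potency is the fitted concentration of half-maximal effect; 0% = enzyme reaction without inhibitor and -100% = no enzyme wells; top concentration of the series not given in the record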
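Fluorescence-quenching assay with 15 nM Sfp, 5 uM rhodamine-CoA and 12.5 uM BHQ-2-labelled ybbR peptide in pH 7.6 Hepes/MgCl2 buffer. Enzyme was pre-incubated with compound for 15 min at room temperature. Rate was taken from the 30-min fluorescence change (525/598 nm).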
Numbers without * were called inactive; ? = inconclusive; / = not tested or not shown; ! = not confirmed by another sample; [ ] = remark or other dose. Rows were chosen to be rich in hits. Some 13% of all compounds tested hit in one or more screens of this group. Unless noted, the call rests on the fitted dose curve; in most records, active means well fitted curve in the direction sought with a large enough effect; inconclusive means small, poorly fitted or top-dose-only effect, or another doubt; inactive means no such curve, though single readings can be large; an effect the other way counts as inactive or inconclusive.

Codes – A = ALDH1A1 inh; B = G9a block; C = miR-21 reporter; D = JMJD2E inh; E = Lamin A splicing; F = Sfp PPTase inh
Structure: COc1cccc(C(=O)c2cn(CC(=O)Nc3cccc(Cl)c3C)c3nc(C)ccc3c2=O)c1
  A: /; B: 7%[59 µM]; C: 0%; D: /; E: /; F: /
Structure: Cn1nc(C(=O)N2CCN(c3ccccc3F)CC2)c2c1-c1ccccc1SC2
  A: /; B: 14µM*; C: 0%; D: /; E: /; F: /
Structure: Cn1nc(C(=O)NCc2ccc(Cl)cc2)c2c1-c1ccccc1SC2
  A: /; B: ?; C: -12%; D: /; E: /; F: /
Structure: Cn1nc(C(=O)NCc2ccc(F)cc2)c2c1-c1ccccc1SC2
  A: /; B: 14µM*; C: 15%; D: /; E: /; F: /
Structure: Cn1nc(C(=O)N2CCN(c3ccccc3)CC2)c2c1-c1ccccc1SC2
  A: /; B: 16µM*; C: -13%; D: /; E: /; F: /
Structure: Cn1nc(C(=O)N2CCN(c3ccc(F)cc3)CC2)c2c1-c1ccccc1SC2
  A: /; B: -60%[59 µM]; C: 28%; D: /; E: /; F: /
Structure: COc1ccc(N2CCN(C(=O)c3nn(C)c4c3CSc3ccccc3-4)CC2)cc1
  A: /; B: -29%[59 µM]; C: -7%; D: /; E: /; F: /
Structure: Oc1[nH]c2ccccc2c1N=NC(=S)NCC1CCCO1 (stereo not drawn)
  A: 11%; B: -3%; C: -21%; D: -9%; E: ?; F: ?
Structure: CCn1c(O)c(N=NC(=S)NCC2CCCO2)c2ccccc21 (stereo not drawn)
  A: 0.5µM*; B: ?; C: 16%; D: 12%; E: ?; F: 4%
Structure: Oc1[nH]c2c(Cl)cc(Cl)cc2c1N=NC(=S)NCC1CCCO1 (stereo not drawn)
  A: 0.45µM*; B: 14%[59 µM]; C: -5%; D: 8%; E: ?; F: 17%
Structure: Cc1cc(C)c2[nH]c(O)c(N=NC(=S)NCC3CCCO3)c2c1 (stereo not drawn)
  A: 0.079µM*; B: 12%; C: 2%; D: 0%; E: 5%; F: ?
Structure: O=C(c1ccccc1)N(Cc1cccc(Br)c1)C1CCS(=O)(=O)C1 (stereo not drawn)
  A: /; B: -9%[59 µM]; C: -4%; D: /; E: /; F: 20%
Structure: COc1ccc(CNCCSc2nnnn2-c2ccccc2)c(OC)c1
  A: /; B: -2%[59 µM]; C: -6%; D: /; E: 1%[46 µM]; F: /
Structure: CCOC(=O)CSc1nc(-c2ccccc2)ns1
  A: ?; B: 8.9µM*; C: -1%; D: 7%; E: /; F: 16µM*
Structure: CCOC(=O)CSc1nnc(-c2ccccc2)c(-c2ccccc2)n1
  A: /; B: 47%; C: 0%; D: /; E: /; F: -2%
Structure: Cc1ccc(-c2nsc(SCC(=O)NCC3CCCO3)n2)cc1 (stereo not drawn)
  A: 5%; B: -32%; C: 4%; D: 6%; E: ?; F: 20%
Structure: COc1ccc(-c2nsc(SCC(=O)Nc3cc(C)on3)n2)cc1
  A: 28µM*; B: 3.5µM*; C: -15%; D: 3%; E: 15%; F: 16µM*
Structure: COc1ccc(-c2nsc(SCC(=O)NCC3CCCO3)n2)cc1 (stereo not drawn)
  A: 25µM*; B: 7.9µM*; C: -36%; D: ?; E: ?; F: -1%
Structure: CCOC(=O)CNC(=O)CSc1nc(-c2ccc(OC)cc2)ns1
  A: ?; B: 18µM*; C: -3%; D: -13%; E: /; F: 40µM*
Structure: O=c1oc2c(F)cc(F)cc2cc1S(=O)(=O)c1ccc(F)cc1
  A: /; B: -4%[59 µM]; C: -2%; D: /; E: /; F: /
Structure: CC1CCN(S(=O)(=O)c2ccc3[nH]ccc3c2)CC1
  A: /; B: 16%[59 µM]; C: 5%; D: /; E: -11%[46 µM]; F: /
Structure: C=C1C[C@@]23C[C@]1(O)CC[C@@H]2[C@]12C=C[C@@H](O)[C@](C)(C(=O)O1)[C@H]2[C@H]3C(=O)O
  A: -3%[20.9 µM]; B: 8%[21.5 µM]; C: /; D: -1%[25.5 µM]; E: ?; F: -2%
Structure: CC(=O)c1c(C)oc(C)c1CSCc1ccc(C(=O)O)o1
  A: ?; B: ?; C: -3%; D: -24%; E: -5%; F: 45µM*
Structure: O=C1CCN(Cc2ccc(O)cc2)CCN1CCO
  A: /; B: /; C: 0%; D: /; E: /; F: 2%
Structure: Cc1ccc(C2=[N+]([O-])C3(CCCCC/C3=N\O)N(O)C2(C)C)o1 (stereo not drawn)
  A: 28µM*; B: ?; C: -3%; D: -17%; E: -8%; F: ?
Structure: CCN=C1S/C(=C\c2ccc(O)c(OCC)c2)C(=O)N1CC
  A: ?; B: 22%[59 µM]; C: -17%; D: -10%; E: -2%; F: 6%
Structure: CCN=C1S/C(=C\c2cc(OCC)c(O)cc2Br)C(=O)N1CC
  A: 0.89µM*; B: -9%; C: 7%; D: -5%; E: ?; F: -3%
Structure: COc1ccc(Oc2nc(OC)cc(OC)n2)cc1
  A: -12%; B: -14%[59 µM]; C: 8%; D: -13%; E: /; F: -17%
Structure: Cn1c(SCC(=O)N/N=C/c2cc([N+](=O)[O-])ccc2O)nnc1-c1ccccc1
  A: /; B: -2%; C: -1%; D: 10µM*; E: /; F: 18%
Structure: Cn1c(SCC(=O)N/N=C/c2ccccn2)nnc1-c1ccccc1
  A: 10%; B: -28%; C: 1%; D: 2%; E: /; F: 45µM*

The last 3 compounds of the section above are carried over, then new ones follow:
Codes – A = ALDH1A1 inh; B = G9a block; C = miR-21 reporter; D = JMJD2E inh; E = Lamin A splicing; F = Sfp PPTase inh
Structure: COc1ccc(Oc2nc(OC)cc(OC)n2)cc1
  A: -12%; B: -14%[59 µM]; C: 8%; D: -13%; E: /; F: -17%
Structure: Cn1c(SCC(=O)N/N=C/c2cc([N+](=O)[O-])ccc2O)nnc1-c1ccccc1
  A: /; B: -2%; C: -1%; D: 10µM*; E: /; F: 18%
Structure: Cn1c(SCC(=O)N/N=C/c2ccccn2)nnc1-c1ccccc1
  A: 10%; B: -28%; C: 1%; D: 2%; E: /; F: 45µM*
Structure: Cn1c(SCC(=O)N/N=C/c2ccc([N+](=O)[O-])s2)nnc1-c1ccccc1
  A: -1%; B: 15%[59 µM]; C: ?; D: 4%; E: ?; F: -12%
Structure: Cn1c(SCC(=O)N/N=C/c2cccnc2)nnc1-c1ccccc1
  A: /; B: 23%[59 µM]; C: 0%; D: 5%; E: /; F: 9%
Structure: CCc1[nH]nc(C(=O)N2CCCC(N3CCN(c4ccccc4C)CC3)C2)c1C (stereo not drawn)
  A: /; B: 14%; C: 11%; D: /; E: /; F: 6%
Structure: COc1cccc(C(=O)N(c2ccc(C)cc2)C2C=CS(=O)(=O)C2)c1 (stereo not drawn)
  A: 3%; B: -33%; C: -1%; D: 0%; E: /; F: 10%
Structure: O=C(Nc1ccc2ccccc2c1)N1CCCN(CCOc2ccccc2)CC1
  A: 2%; B: 3%; C: ?; D: ?; E: /; F: 8%
Structure: Nc1nc(-c2ccco2)nn1C(=O)c1ccc(Cl)cc1
  A: 5%; B: 15%[59 µM]; C: -8%; D: -10%; E: 9%; F: -10%
Structure: CSc1nc(-c2ccco2)nn1C(=O)c1ccc(Cl)cc1
  A: 18%; B: 79µM*; C: -1%; D: 7%; E: 2%; F: 9%
Structure: COC1CCCCC1Nc1cc(C)cc(C)c1 (stereo not drawn)
  A: ?; B: 14µM*; C: 0%; D: ?; E: 23%; F: -8%
Structure: CCN(CC)C(=O)c1sc2c(c1C)c(=O)n(-c1ccc(C)c(C)c1)c(=O)n2Cc1cc(=O)n2ccccc2n1
  A: /; B: 0%[59 µM]; C: -12%; D: /; E: ?; F: /
Structure: O=C(C1CCN(S(=O)(=O)c2cccc3cccnc23)CC1)N1CCCCC1
  A: /; B: /; C: -4%; D: /; E: /; F: 7%
Structure: O=C(Nc1ccccc1)C1=C[C@@H](C2CCCCC2)C[C@@H](OCc2ccc(CO)cc2)O1
  A: 4.5µM*; B: 8%[12.7 µM]; C: 8%; D: -14%; E: /; F: 28%
Structure: C=CCOC(=O)C1=C[C@@H](C2CCCCC2)C[C@@H](OCc2ccc(CO)cc2)O1
  A: 1µM*; B: ?; C: 1%; D: -7%; E: /; F: 7%
Structure: O=C(C1=C[C@@H](C2CC2)C[C@@H](OCCCCO)O1)N1CCOCC1
  A: 32µM*; B: /; C: 0%; D: 0%; E: /; F: 2%
Structure: O=C(C1=C[C@@H](C2CCCCC2)C[C@@H](OCCCCO)O1)N1CCOCC1
  A: ?; B: -7%[59 µM]; C: -1%; D: 1%; E: /; F: -11%
Structure: O=C(C1=C[C@H](C2CCCCC2)C[C@H](OCc2ccc(CO)cc2)O1)N1CCN(Cc2ccccc2)CC1
  A: 14µM*; B: ?; C: 5%; D: ?; E: /; F: -13%
Structure: O=C(Nc1ccc(F)cc1F)C1CCN(S(=O)(=O)c2ccc3[nH]c(=O)ccc3c2)CC1
  A: /; B: 0%[59 µM]; C: -17%; D: /; E: 1%[46 µM]; F: /
Structure: OCc1c[nH]c2ccccc12
  A: -2%; B: 13µM*!; C: /; D: 2%; E: /; F: 1%
Structure: O=C(Cc1ccc(Br)cc1)Nc1nc2ccccc2[nH]1
  A: /; B: -4%; C: -30%; D: 7%; E: /; F: 16%
